From patent US10227295B2, “Selective histone deactylase 6 inhibitors” (H. LEE MOFFITT CANCER CENTER AND RESEARCH INSTITUTE, INC., priority 2013, dated 2019) come the findings set out here.

The subject of this experiment is NRAS and BRAF mutant human melanoma cell lines. Description: Human melanoma cell proliferation MTS assay. The experiment is classed as cell-based. The note with it: 24 h, panel of human melanoma cell lines.

For `CCCCN(Cc1ccc(C(=O)NO)cc1)C(=O)Nc1ccccc1` [Compound 5g, 4-((1-butyl-3-phenylureido)methyl)-N-hydroxybenzamide], the “concentration range inhibiting proliferation (in words)” value was “low micromolar range”.
